Results: ChEMBL document CHEMBL1135440, “(+)-Dinapsoline: an efficient synthesis and pharmacological profile of a novel dopamine agonist” (J Med Chem, 2002)

Amino acid sequences for entries named in this document (tags omitted).
UniProt P18901, whole entry: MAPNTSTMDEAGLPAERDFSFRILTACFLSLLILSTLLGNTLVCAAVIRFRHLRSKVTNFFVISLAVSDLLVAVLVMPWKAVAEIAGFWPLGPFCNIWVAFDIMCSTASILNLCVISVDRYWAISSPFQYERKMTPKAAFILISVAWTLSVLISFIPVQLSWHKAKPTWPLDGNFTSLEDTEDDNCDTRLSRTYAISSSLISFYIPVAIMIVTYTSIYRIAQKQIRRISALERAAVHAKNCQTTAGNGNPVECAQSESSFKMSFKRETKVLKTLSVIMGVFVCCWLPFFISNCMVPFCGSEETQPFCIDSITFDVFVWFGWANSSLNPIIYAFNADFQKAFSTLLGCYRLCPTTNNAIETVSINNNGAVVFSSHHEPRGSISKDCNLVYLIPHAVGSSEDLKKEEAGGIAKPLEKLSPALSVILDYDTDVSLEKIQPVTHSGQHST
UniProt P61169, whole entry: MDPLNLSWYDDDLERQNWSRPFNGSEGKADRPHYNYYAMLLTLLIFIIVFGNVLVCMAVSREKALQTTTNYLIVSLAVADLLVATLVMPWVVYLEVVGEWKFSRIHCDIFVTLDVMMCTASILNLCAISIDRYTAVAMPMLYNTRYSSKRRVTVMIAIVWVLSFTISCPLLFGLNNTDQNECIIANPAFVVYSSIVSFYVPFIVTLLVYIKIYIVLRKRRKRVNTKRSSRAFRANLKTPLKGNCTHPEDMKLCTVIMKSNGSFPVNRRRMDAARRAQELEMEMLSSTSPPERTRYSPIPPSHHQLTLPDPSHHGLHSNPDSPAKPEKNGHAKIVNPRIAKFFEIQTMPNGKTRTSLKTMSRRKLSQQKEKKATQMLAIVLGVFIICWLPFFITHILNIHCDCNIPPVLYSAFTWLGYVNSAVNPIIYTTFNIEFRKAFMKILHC

Legend:
[1] = target: D(1A) dopamine receptor (Rattus norvegicus, UniProt P18901); assay: In vitro inhibition of [125I]SCH-23982 binding to Dopamine receptor D1 of rat striatal membrane
[2] = target: D(2) dopamine receptor (Rattus norvegicus, UniProt P61169); assay: In vitro inhibition of [125I]7-OH-PIPAT binding to Dopamine receptor D2 of rat striatal membrane

Row | IC50 [1] [nM] | IC50 [2] [nM] | Structure (SMILES)
1 | 33 | 38 | Oc1ccc2c(c1O)Cc1cccc3c1[C@H]2CNC3
2 | 67 | 56 | Oc1ccc2c(c1O)Cc1cccc3c1C2CNC3 (racemic)
3 | 5300 | 1500 | Oc1ccc2c(c1O)Cc1cccc3c1[C@@H]2CNC3
